Measurements from ChEMBL document CHEMBL5518221, “Discovery and Optimization of Selective Brain-Penetrant EBP Inhibitors that Enhance Oligodendrocyte Formation” (J Med Chem, 2024).
Activity calls are given as the source filed them. The rule behind the calls is not given here.

Species on record: Homo sapiens
Assay: Induction of human pluripotent stem cell derived oligocortical organoid differentiation assessed as increase in CCI-positive maturing oligodendrocytes percentage at 350 to 1750 nM incubated for 30 days by immunostaining analysis
Type: functional, tissue-based
Conditions: dose lower […], dose upper 1750.0 nM, time 30.0 day

In the case of `CCN1C(=O)N(c2ccc(C3CC3)cc2)C(=O)C12CCN(CC1CCOCC1)CC2`, the Activity is reported as “Active”.
